In the assay the target is T1, EphB2 ectodomain fused to human Fc, carboxy-terminal hexahistidine tag (human).
T1 chain: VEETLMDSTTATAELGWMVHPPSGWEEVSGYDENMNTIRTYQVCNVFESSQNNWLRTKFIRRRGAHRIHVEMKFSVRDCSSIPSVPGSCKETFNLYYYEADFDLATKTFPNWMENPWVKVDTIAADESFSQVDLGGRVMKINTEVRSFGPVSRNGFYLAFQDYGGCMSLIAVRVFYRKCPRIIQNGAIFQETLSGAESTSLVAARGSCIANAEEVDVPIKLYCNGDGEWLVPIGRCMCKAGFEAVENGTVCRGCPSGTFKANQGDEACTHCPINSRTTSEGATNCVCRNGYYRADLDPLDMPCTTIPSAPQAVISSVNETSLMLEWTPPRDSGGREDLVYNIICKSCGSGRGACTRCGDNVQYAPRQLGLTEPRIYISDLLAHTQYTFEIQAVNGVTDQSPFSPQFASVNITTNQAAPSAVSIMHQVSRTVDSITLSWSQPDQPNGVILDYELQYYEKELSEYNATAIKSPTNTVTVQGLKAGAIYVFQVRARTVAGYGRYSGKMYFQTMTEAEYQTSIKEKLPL
The assay is described as follows: inhibition of ephrin-B2 AP binding to immobilized EphB2 ectodomain Fc; biotinylated peptide.

B1: SNEW peptide, synthetic, biotinylated (peptide)
peptide: SNEWIQPRLPQHGSGS
modifications: C-terminal biotin: on the Lys side chain of a GSGSK linker, or N-biotinyl-ethylenediamine after GSGS (which one is not stated)
Molecule B1 came in with an IC50 of roughly 15 µM.

(Values after patent US20060177452A1 (BURNHAM INSTITUTE FOR MEDICAL RESEARCH, published 2006).)
